This is an account of results in patent US20050245593A1, “4-Aminomethyl-1-aryl-cyclohexylamine compounds” (published 2005).

By UniProt entry, the sequences of proteins in these tests, tags left out. Where a name states a change or a piece, a line headed by the entry shows the natural chain unless it says otherwise.
UniProt P41146: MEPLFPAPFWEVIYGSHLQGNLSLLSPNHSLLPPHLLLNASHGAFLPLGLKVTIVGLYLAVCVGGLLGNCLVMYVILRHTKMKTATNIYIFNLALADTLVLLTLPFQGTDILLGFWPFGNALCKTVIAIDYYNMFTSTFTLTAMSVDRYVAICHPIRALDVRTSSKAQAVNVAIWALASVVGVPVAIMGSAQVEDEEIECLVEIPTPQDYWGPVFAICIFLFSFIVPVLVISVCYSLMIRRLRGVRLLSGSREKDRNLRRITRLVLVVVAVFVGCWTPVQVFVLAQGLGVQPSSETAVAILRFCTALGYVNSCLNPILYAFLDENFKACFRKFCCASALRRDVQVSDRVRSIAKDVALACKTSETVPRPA
UniProt P35372, whole entry, looked up: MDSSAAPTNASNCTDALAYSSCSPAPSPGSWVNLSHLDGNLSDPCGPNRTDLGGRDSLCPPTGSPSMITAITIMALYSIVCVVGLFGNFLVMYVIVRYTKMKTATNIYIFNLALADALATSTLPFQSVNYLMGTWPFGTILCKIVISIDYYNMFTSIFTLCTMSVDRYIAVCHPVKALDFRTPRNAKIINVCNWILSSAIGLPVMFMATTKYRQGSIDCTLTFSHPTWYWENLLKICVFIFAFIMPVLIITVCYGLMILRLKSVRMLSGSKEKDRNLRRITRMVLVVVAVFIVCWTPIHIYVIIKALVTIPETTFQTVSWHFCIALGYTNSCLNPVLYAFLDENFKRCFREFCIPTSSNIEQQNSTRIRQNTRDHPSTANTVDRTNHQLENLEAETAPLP

One test concerns the target ORL1 receptor (Homo sapiens, UniProt P41146). Put plainly: ORL1 receptor binding assay with 3H-nociceptin/orphanin FQ. The following applies: membranes of recombinant CHO-ORL1 cells; for Ki: read-out: ORL1 Ki, 0.5 nM 3H-nociceptin/orphanin FQ.
The next test has as its target human μ-opiate receptor (Homo sapiens, UniProt P35372). Put plainly: μ-opiate receptor binding assay with [3H]-naloxone.
For another test, the system named is mouse. Put plainly: Analgesia test in the tail-flick test in the mouse. The following applies: % of the maximum possible antinociceptive effect.
Setting [1] is: read-out: μ Ki, CHO-K1 membranes expressing human μ-opiate receptor, Cheng-Prusoff, citrate.
Setting [2] is: read-out: μ Ki, CHO-K1 membranes expressing human μ-opiate receptor, Cheng-Prusoff.

Read-outs that look alike come from different tables or passages of the source.

Consider “N-(4-Dimethylamino-4-phenylcyclohexyl)-2-(5-fluoro-2-methyl-1H-indol-3-yl)acetamide citrate [Example 26]”, for which the Ki worked out at 87 nM at ORL1 receptor and 120 nM on human μ-opiate receptor (setting [1]).

As to `CN(C)C1(c2ccccc2)CCC(CNC(=O)CCCCc2c[nH]c3ccccc23)CC1` (centres unmarked), the results for the Ki on ORL1 receptor and on human μ-opiate receptor (setting [2]) were 27 nM and 15 nM, respectively.

For “N-(4-Dimethylamino-4-phenylcyclohexyl)-2-(5-fluoro-2-methyl-1H-indol-3-yl)acetamide citrate [Example 25]”, the “ORL1 % inhibition [1 μM]” value on ORL1 receptor (c=1 μM) stood at 68%. The Ki on human μ-opiate receptor (setting [1]) was found to be 36 nM.

For `CN(C)C1(c2ccccc2)CCC(CNC(=O)Cc2c[nH]c3ccccc23)CC1.Cl` (centres unmarked), in the test with mouse (dose 3.16 mg/kg), the “Tail flick (mouse, i.v.) % inhibition” value is recorded as 70%.

Turning to `CN(C)C1(c2ccccc2)CCC(CNC(=O)Cc2c[nH]c3ccccc23)CC1` (centres unmarked), the results for the Ki at ORL1 receptor and at human μ-opiate receptor (setting [2]) were 20 nM and 5.2 nM, respectively.

In the case of `CN(C)C1(c2ccccc2)CCC(CNC(=O)CCCCCc2c[nH]c3ccccc23)CC1.Cl` (centres unmarked), the “Tail flick (mouse, i.v.) % inhibition” value in the test on mouse (dose 10 mg/kg) was found to be 100%.

`CN(C)C1(c2ccccc2)CCC(CNC(=O)CCCCCc2c[nH]c3ccccc23)CC1` (centres unmarked): the values for the Ki on ORL1 receptor and on human μ-opiate receptor (setting [2]) were 6.6 nM and 5.8 nM, respectively.

In the case of “N-(4-Dimethylamino-4-phenylcyclohexylmethyl)-2-(1H-indol-3-yl)propionamide hydrochloride”, the results for the Ki on ORL1 receptor and on human μ-opiate receptor (setting [2]) were 59 nM and 2.6 nM, respectively. Besides, the “Tail flick (mouse, i.v.) % inhibition” value in the test with mouse (dose 10 mg/kg) is reported as 97%.

Consider `CN(C)C1(c2ccccc2)CCC(CNC(=O)NCCc2c[nH]c3ccccc23)CC1` (centres unmarked), for which the Ki came to 11 nM at human μ-opiate receptor (setting [2]) and 1 nM at human μ-opiate receptor (read-out: μ Ki, CHO-K1 membranes expressing human μ-opiate receptor, Cheng-Prusoff, hydrochloride).

On to `CN(C)C1(c2ccccc2)CCC(CNC(=O)CCCCc2c[nH]c3ccccc23)CC1.Cl` (centres unmarked), for which the “Tail flick (mouse, i.v.) % inhibition” value with mouse (dose 10 mg/kg) was determined as 52%.

Consider `CN(C)C1(c2ccccc2)CCC(CNC(=O)NCCc2c[nH]c3ccccc23)CC1` (single isomer, unassigned), for which the values for the inhibition constant (Ki) on ORL1 receptor and on ORL1 receptor (hydrochloride) were 37 nM and 7.9 nM, respectively.
